According to ChEMBL document CHEMBL3822371, “Rapid Discovery and Structure-Activity Relationships of Pyrazolopyrimidines That Potently Suppress Breast Cancer Cell Growth via SRC Kinase Inhibition with Exceptional Selectivity over ABL Kinase” (J Med Chem, 2016):

System: MCF7
Experiment: cells
Conditions: Homo sapiens, MCF7, 120 h

Q: Which EC50 does the source give for `CCOC(Cn1nc(-c2cnc3[nH]ccc3c2)c2c(N)ncnc21)OCC` here?
A: Its EC50 is 0.8 µM.
